Laboratory results taken from PubChem BioAssay AID2503 (Sanford-Burnham Center for Chemical Genomics, 2010).
pIC50: −log10 of the molar value. Activity calls are given as the source filed them. The rule behind the calls is not given here.

Tested on: MCF-7/NOD2 cells, MDP-induced IL-8 secretion
Assay: inhibition of NOD2-driven IL-8 release, SAR follow-up, MCF-7/NOD2 cells, MDP stimulus, set 2 (AID 2503)

Row | pIC50 | IC50 | SMILES
1 | 4.73 | – | Cc1ccc(S(=O)(=O)n2c(N)nc3ccccc32)cc1
2 | – | inactive: > 25 µM | Nc1nc2ccccc2n1C(=O)c1ccc(Cl)cc1Cl
